Among the data in ChEMBL document CHEMBL1132530, “Picking the S1, S1' and S2' pockets of matrix metalloproteinases. A niche for potent acyclic sulfonamide inhibitors” (Bioorg Med Chem Lett, 1999) are IC50 values, retold here.

In the test the target is Collagenase 3 (Homo sapiens, UniProt P45452). Description: Inhibition of matrix metalloprotease-13.

In turn, `COc1ccc(S(=O)(=O)N(CC(C)C)[C@@H](CCSCc2ccc(OCc3ccccc3)cc2)C(=O)NO)cc1` gave an IC50 of 20 nM.
